# Patent publication US6579696B1, “Polymyxin B conjugates” (priority 1992, dated 2003)
# Experiments:
# [1] = tested on: Fc receptors of the human U937 monocyte/macrophage cell line; assay: Fc receptor binding, competition with 125I-IgG; settings: FIG. 10
# [2] = tested on: uptake of E. coli HB101 by U937 cells; assay: Opsonophagocytosis assay; assay type: cell-based, human; settings: Table 36
substance,measurement,setting,value
"human albumin-PMB: human serum albumin conjugated with PMB by SPDP chemistry, control conjugate",competition with 125I-IgG for binding to U937 cells (in words),[1],no competitive binding activity at concentrations up to 10^−6
same,U937 Cells Which Contained One Or More E. coli,[2]; 7.75 μg/ml,5%
same,U937 Cells Which Contained One Or More E. coli,[2]; 0.0155 mg/ml,2%
same,U937 Cells Which Contained One Or More E. coli,[2]; 0.031 mg/ml,0%
